From ChEMBL document CHEMBL1154594, “Delta agonist hydroxy bioisosteres: the discovery of 3-((1-benzylpiperidin-4-yl){4-[(diethylamino)carbonyl]phenyl}amino)benzamide with improved delta agonist activity and in vitro metabolic stability” (Bioorg Med Chem Lett, 2009) come the findings set out here.

Sequences of proteins named here, by UniProt entry; tags and fusion partners are left off.
UniProt P41143, whole entry: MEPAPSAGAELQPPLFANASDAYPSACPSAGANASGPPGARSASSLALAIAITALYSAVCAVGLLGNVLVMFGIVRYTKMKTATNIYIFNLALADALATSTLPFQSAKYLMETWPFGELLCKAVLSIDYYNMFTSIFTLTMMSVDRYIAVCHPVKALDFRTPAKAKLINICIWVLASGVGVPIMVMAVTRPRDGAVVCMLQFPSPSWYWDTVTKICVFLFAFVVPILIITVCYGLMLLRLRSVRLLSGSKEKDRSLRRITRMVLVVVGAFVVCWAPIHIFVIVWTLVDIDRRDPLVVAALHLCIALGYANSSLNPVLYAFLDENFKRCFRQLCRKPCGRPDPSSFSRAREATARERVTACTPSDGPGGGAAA

Bounds are passed on as bounds.

What is called Emax is the greatest response seen or fitted, relative to the assay's reference.

For assay [1], the species on record is Homo sapiens. Briefly: Selectivity ratio of Ki for human cloned mu opioid receptor to Ki for human cloned delta opioid receptor.
Assay [2] addresses Delta-type opioid receptor (Homo sapiens) (UniProt P41143). Briefly: Agonist activity at human delta opioid receptor by GTP[gamma]35S binding assay relative to SNC80. Background: GTPγS resists hydrolysis and so accumulates on activated G proteins.
The species entered for assay [3] is Homo sapiens. The assay can be described thus: Selectivity ratio of Ki for human cloned kappa opioid receptor to Ki for human cloned delta opioid receptor.

With `CCN(CC)C(=O)c1ccc(N(c2cccc(CN(C)C)c2)C2CCN(Cc3ccccc3)CC2)cc1`, the Ratio Ki was 121 in the assay listed under Homo sapiens [1] and 51 in the assay listed under Homo sapiens [3]. This compound yielded an Emax in assay [2] of 112%.

Regarding `CCN(CC)C(=O)c1ccc(N(c2cccc(NS(C)(=O)=O)c2)C2CCN(Cc3ccccc3)CC2)cc1`, the values for the Ratio Ki in the assay listed under Homo sapiens [1] and in the assay listed under Homo sapiens [3] were 337 and 2600, respectively. For the same compound, the Emax in assay [2] is 98%.

Consider `CCN(CC)C(=O)c1ccc(N(c2ccccc2C(N)=O)C2CCN(Cc3ccccc3)CC2)cc1`, for which the Ratio Ki stood at 132 in the assay filed under Homo sapiens [1] and 262 in the assay filed under Homo sapiens [3].

`CCN(CC)C(=O)c1ccc(N(c2cccc(NC(C)=O)c2)C2CCN(Cc3ccccc3)CC2)cc1`: the Ratio Ki in the assay listed under Homo sapiens [1] is 568; in the assay filed under Homo sapiens [3], above 5590. In assay [2], the Emax was 96%.

Turning to `CCN(CC)C(=O)c1ccc(N(c2cccc(C(C)O)c2)C2CCN(Cc3ccccc3)CC2)cc1` (stereo not drawn), the Ratio Ki in the assay listed under Homo sapiens [1] is 47; in the assay listed under Homo sapiens [3], 59.

For the compound `CCN(CC)C(=O)c1ccc(N(c2cccc(C(=O)OC)c2)C2CCN(Cc3ccccc3)CC2)cc1`, the Ratio Ki in the assay filed under Homo sapiens [1] came to 118; in the assay filed under Homo sapiens [3] it was 92.

For `CCN(CC)C(=O)c1ccc(N(c2cccc(O)c2)C2CCN(Cc3ccccc3)CC2)cc1`, the Ratio Ki in the assay listed under Homo sapiens [1] was found to be 210; in the assay listed under Homo sapiens [3], 1770. In assay [2], this compound displayed an Emax of 100%.

Take `CCN(CC)C(=O)c1ccc(N(c2cccc(C(C)=O)c2)C2CCN(Cc3ccccc3)CC2)cc1`: the Ratio Ki in the assay listed under Homo sapiens [1] came out at 906; in the assay listed under Homo sapiens [3] it was 2670. Further, in assay [2], the Emax came out at 116%.

`CCN(CC)C(=O)c1ccc(N(c2cccc(C(N)=O)c2)C2CCN(Cc3ccccc3)CC2)cc1`: the values for the Ratio Ki in the assay listed under Homo sapiens [1] and in the assay filed under Homo sapiens [3] were 972 and 2500, respectively. This compound also yielded an Emax in assay [2] of 101%.

For the compound `CCN(CC)C(=O)c1ccc(N(c2cccc(C=O)c2)C2CCN(Cc3ccccc3)CC2)cc1`, the Ratio Ki in the assay filed under Homo sapiens [1] was 349; in the assay filed under Homo sapiens [3], 1410. Besides, in assay [2], the Emax stood at 109%.

Turning to `CCN(CC)C(=O)c1ccc(N(c2cccc(C(=O)NC)c2)C2CCN(Cc3ccccc3)CC2)cc1`, the figures for the Ratio Ki in the assay listed under Homo sapiens [1] and in the assay filed under Homo sapiens [3] were 243 and above 515, respectively. In addition, the Emax in assay [2] was 100%.

`CCN(CC)C(=O)c1ccc(N(c2cccc(CN)c2)C2CCN(Cc3ccccc3)CC2)cc1`: the Ratio Ki in the assay filed under Homo sapiens [1] was 2; in the assay filed under Homo sapiens [3], 7.

`CCN(CC)C(=O)c1ccc(N(c2cccc(CO)c2)C2CCN(Cc3ccccc3)CC2)cc1`: the Ratio Ki in the assay filed under Homo sapiens [1] was determined as 326; in the assay listed under Homo sapiens [3], 570. Further, in assay [2], the Emax turned out to be 103%.

As for `CCN(CC)C(=O)c1ccc(N(c2cccc(NC(=O)OC)c2)C2CCN(Cc3ccccc3)CC2)cc1`, the figures for the Ratio Ki in the assay listed under Homo sapiens [1] and in the assay listed under Homo sapiens [3] were 183 and 1400, respectively. The same compound gave an Emax in assay [2] of 102%.

As to `CCN(CC)C(=O)c1ccc(N(c2cccc(N)c2)C2CCN(Cc3ccccc3)CC2)cc1`, the Ratio Ki in the assay filed under Homo sapiens [1] is 1430; in the assay listed under Homo sapiens [3], 2110. For the same compound, in assay [2], the Emax was 109%.

Take `CCN(CC)C(=O)c1ccc(N(c2ccc(C(N)=O)cc2)C2CCN(Cc3ccccc3)CC2)cc1`: the values for the Ratio Ki in the assay filed under Homo sapiens [1] and in the assay listed under Homo sapiens [3] were 15 and 193, respectively.
